{"source": "patent US20250206790A1", "key": {"[1]": {"target": "T1, His-CTDSP1 (C-terminal domain small phosphatase 1 with C-terminal linker and His tag) (Homo sapiens (Human)), Q9GZU7", "T1 chain": "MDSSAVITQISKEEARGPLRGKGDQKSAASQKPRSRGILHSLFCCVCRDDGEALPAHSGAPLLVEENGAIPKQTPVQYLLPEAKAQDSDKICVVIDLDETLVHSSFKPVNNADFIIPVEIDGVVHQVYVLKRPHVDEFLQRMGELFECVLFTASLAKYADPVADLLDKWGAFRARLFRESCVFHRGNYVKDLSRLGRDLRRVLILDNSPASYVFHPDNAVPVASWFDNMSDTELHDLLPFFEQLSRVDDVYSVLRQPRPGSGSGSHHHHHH", "assay": "Monolith (NanoTemper); His tag of CTDSP1 (40 nM) labelled with RED-tris NTA dye, GST-RPP titrated from low pM up to 0.5 µM"}, "[2]": {"target": "T1, His-CTDSP1 (C-terminal domain small …)", "assay": "cell-based or functional assay"}}, "data": [{"binder": "GST-RPP (REST phosphomimetic peptide fused to GST) (modifications not checked) MCTEDLEPPEPPLPKENCGSGSGSGSSPILGYWKIKGLVQPTRLLLEYLEEKYEEHLYERDEGDKWRNKKFELGLEFPNLPYYIDGDVKLTQSMAIIRYIADKHNMLGGCPKERAEISMLEGAVLDIRYGVSRIAYSKDFETLKVDFLSKLPEMLKMFEDRLCHKTYLNGDHVTHPDFMLYDALDVVLYMDPMCLDAFPKLVCFKKRIEAIPQIDKYLKSSKYIAWPLQGWQATFGGGDHPPK", "values": [{"measurement": "Kd", "setting": "[1]", "value": 0.13, "unit": "nM"}, {"measurement": "Relative Phosphatase activity of CTDSP1 on REST peptide TEDpSPPp[..] at 1 µM peptide-GST fusion (relative to GST control)", "setting": "[2]", "value": 0.42}]}]}
